ChEMBL document CHEMBL4007424, “Design and Synthesis of Enantiomerically Pure Decahydroquinoxalines as Potent and Selective κ-Opioid Receptor Agonists with Anti-Inflammatory Activity in Vivo” (J Med Chem, 2017)

The chains behind the UniProt entries cited, without tags or fusion partners. Where a name states a change or a piece, a line headed by the entry shows the natural chain unless it says otherwise.
UniProt Q60492, whole entry, looked up: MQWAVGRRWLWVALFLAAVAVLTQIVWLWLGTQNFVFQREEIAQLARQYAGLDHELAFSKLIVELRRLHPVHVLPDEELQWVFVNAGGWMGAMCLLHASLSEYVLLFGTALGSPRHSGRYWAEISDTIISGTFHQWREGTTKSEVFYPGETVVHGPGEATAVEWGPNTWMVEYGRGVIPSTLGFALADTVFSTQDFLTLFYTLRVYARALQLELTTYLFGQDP
UniProt P41145: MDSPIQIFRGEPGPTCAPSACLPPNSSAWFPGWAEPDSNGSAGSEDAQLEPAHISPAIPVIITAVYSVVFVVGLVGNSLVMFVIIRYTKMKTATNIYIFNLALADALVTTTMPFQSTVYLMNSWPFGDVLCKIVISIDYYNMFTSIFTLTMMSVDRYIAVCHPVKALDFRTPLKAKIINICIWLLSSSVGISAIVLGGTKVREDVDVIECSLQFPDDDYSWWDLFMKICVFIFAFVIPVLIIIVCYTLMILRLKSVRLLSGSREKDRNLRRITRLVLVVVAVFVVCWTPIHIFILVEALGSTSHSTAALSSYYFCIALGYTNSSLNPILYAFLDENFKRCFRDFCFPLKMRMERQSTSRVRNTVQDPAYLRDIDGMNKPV

Tests used:
[1] = molecular target: Sigma non-opioid intracellular receptor 1 (Cavia porcellus) (UniProt Q60492); assay: Displacement of [3H]-(+)-pentazocine from sigma1-type […] receptor in guinea pig cortex membranes at 1 uM after 120 mins by solid scintillation counting; assay type: cell membranes
[2] = molecular target: Kappa-type opioid receptor (Homo sapiens, UniProt P41145); assay: Agonist activity at recombinant human kappa-type opioid receptor expressed in HEK293 cells at 1 uM after 30 mins by [35S]GTPgammaS binding assay; assay type: functional, cell-based

Compound	inhibition [1]	Activity [2]
O=C(Cc1ccc(Cl)c(Cl)c1)N1CCN[C@H]2CCC[C@H](N3CCCC3)[C@H]21	6%	89%
CN(C(=O)Cc1ccccc1)[C@H]1CC[C@@]2(CCCO2)C[C@@H]1N1CCCC1	–	100%
COC(=O)N1CCN(C(=O)Cc2ccc(Cl)c(Cl)c2)[C@@H]2[C@@H](N3CCCC3)CCC[C@@H]21	0%	–
